Results published in patent publication US6727285B1, “Use of D-arginine and/or L-arginine to protect the amino groups of biological substances from damage, inactivation, or modification by toxic carbonyls and/or dicarbonyls” (priority 1995, dated 2004).

Chains of the proteins cited; added tags and fusions are not shown. Residues count along the entry.
UniProt P02769, 25-607: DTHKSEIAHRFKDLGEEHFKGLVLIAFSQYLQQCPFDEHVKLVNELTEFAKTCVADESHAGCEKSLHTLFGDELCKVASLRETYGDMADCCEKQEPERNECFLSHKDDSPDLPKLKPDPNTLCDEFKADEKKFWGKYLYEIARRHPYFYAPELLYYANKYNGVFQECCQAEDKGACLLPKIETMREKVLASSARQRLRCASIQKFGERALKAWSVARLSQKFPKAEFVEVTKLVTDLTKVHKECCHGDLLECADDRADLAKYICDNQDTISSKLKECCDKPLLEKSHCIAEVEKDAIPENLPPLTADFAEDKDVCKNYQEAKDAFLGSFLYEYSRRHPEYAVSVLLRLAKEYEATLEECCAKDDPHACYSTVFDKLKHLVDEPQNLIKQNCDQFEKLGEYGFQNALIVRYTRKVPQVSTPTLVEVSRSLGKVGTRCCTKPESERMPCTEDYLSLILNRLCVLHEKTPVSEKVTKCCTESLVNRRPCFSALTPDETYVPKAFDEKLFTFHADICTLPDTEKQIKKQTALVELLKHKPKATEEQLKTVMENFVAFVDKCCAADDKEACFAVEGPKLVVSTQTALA

Tests used:
Format in all cases: biochemical
bovine serum albumin [1] = experiment: Blocking of methylglyoxal or glyoxal cross-linking (gel formation) of albumin, inventor's tests; settings: arginines: hydrochloride salts and free base forms
bovine serum albumin [2] = target: T1, bovine serum albumin (Bos taurus, UniProt P02769); settings: 98.6° F.
T1 construct: HEPES salt, HEPES acid, and bovine serum albumin was obtained from Sigma; purchased Sigma
Experimental: As described in TABLE #4, 2 cc of 30% bovine serum albumin (BSA) was added by glass pipette (Kimax 1/100) to each of three glass 7 ml. test tubes numbered 1, 2, and 3. 0.4 ml. of 6 molar HEPES buffer was added to tube #1 by glass pipette. 0.5 ml. of 6 molar HEPES buffer was added to test tube #2. 0.3 ml. of 6 molar HEPES buffer was added to tube #3.

bovine serum albumin [3] = target: T1, bovine serum albumin; settings: pH 8 to 11; buffered and unbuffered systems
Experimental: The magnetic stirrer was set to 217 rpm. The pH was checked at five minutes.
The pH was constantly monitored as were the color and fluid characteristics of the mixture. […] The end-point was recorded when a visible non-flowing gel formed in the tube and could not be caused to flow when the tube was inverted at 40 degrees below the horizontal for two minutes.

[4] = sample 2: 2 ml 30% BSA + 0.5 cc 6 m HEPES (pH 7.35), 0.10 ml of 40% methylglyoxal (0.55 millimole) buffered to pH 7.44, no protectant

Compound | blocking of the cross-linking of albumin by methylglyoxal or glyoxal (bovine serum albumin [1]) | FINAL FORM (bovine serum albumin [2]; sample 1: 2 ml 30% BSA + 0.4 cc 6 m HEPES (pH 7.40), 1 millimole methylglyoxal (0.18 ml of 40%, pH not adjusted), no protectant, 217 RPM) | FINAL FORM (bovine serum albumin [2]; [4]) | time until yellow brown gelatin formed (bovine serum albumin [2]; [4]) | binding of bovine serum albumin (bovine serum albumin [3])
N[C@@H](CS)C(=O)O [cysteine] | do not block |  |  |  | 
CC(=O)C=O [methylglyoxal] |  | FIRM GEL | GEL | pH 7.22 at 5 minutes; 2 hours | does not bind bovine serum albumin well
CN(CC(=O)O)C(=N)N [creatine] | do not block |  |  |  | 

Read-outs that look alike come from different tables or passages of the source.
